The values that follow come from patent publication US6821326B2, “Small particle copper pyrithione” (Arch Chemicals, Inc., priority 2002, dated 2004).

The data set is described as follows: Particle size analysis on a Horiba Laser light scattering particle size analyzer. Conditions: after low shear mixing into xylene dispersion (Comparative Example A). Format: physicochemical. Here is the method:
As a comparison to the dispersions of the present invention, 13 grams “LAROFLEX MP25” polymer resin (vinyl chloride-isobutyl vinyl ether copolymer, a product of BASF Corporation, Charlotte, N.C.) was dissolved into 832 grams of xylene. […] The mixture was stirred at low speed (1000 rpm) and with low shear for 0.5 hours to provide adequate mixing until a homogenous mixture was achieved.
The diluted sample was then run though a Mini Zeta Netzsch mill for 150 minutes at 2000 rpm.

SMILES strings stand for the structures.

As to `On1ccccc1=S.On1ccccc1=S.[Cu]` [Copper Pyrithione, copper pyrithione], the “Mean Particle Size” value was 3.05 Microns and the “Median Particle Size” value amounted to 3.36 Microns.
